Chains of the proteins cited; added tags and fusions are not shown. A line that says so, or that is headed by a name, gives the form on record, which may keep a tag or linker. Residues count along the entry.
UniProt P10398, 273-606 with tags or gaps Y301D/Y302D limits assumed: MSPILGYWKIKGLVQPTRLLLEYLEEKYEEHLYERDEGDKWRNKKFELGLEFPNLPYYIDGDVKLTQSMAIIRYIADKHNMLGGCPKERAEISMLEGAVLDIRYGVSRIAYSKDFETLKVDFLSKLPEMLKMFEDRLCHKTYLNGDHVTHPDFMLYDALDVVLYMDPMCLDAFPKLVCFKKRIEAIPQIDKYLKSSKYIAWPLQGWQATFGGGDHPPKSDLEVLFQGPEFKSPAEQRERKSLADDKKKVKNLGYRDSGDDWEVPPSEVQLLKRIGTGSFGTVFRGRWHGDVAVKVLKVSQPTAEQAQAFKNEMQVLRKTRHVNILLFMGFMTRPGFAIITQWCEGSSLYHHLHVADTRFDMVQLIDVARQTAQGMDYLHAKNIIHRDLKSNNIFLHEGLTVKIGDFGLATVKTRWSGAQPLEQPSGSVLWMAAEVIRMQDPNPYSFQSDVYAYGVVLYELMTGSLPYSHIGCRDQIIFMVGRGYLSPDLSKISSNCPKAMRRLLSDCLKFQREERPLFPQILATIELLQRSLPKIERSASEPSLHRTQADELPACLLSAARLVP
UniProt P15056, 416-766 limits assumed: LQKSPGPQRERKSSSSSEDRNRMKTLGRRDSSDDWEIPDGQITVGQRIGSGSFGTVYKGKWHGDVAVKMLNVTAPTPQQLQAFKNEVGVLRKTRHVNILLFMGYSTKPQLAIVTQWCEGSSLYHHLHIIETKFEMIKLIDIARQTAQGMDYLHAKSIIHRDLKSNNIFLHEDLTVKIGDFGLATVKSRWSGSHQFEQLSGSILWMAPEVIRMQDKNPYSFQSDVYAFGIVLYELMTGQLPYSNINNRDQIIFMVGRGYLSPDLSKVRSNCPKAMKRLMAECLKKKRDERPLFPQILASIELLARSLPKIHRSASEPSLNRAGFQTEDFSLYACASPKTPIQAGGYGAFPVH

In patent US12319655B2, “RAF kinase inhibitors and methods of use thereof” (Deciphera Pharmaceuticals, LLC, priority 2021, dated 2025):

Key:
A375 cells = assay: A375 Cell Proliferation Assay (1); conditions: read-out: A375 (1) IC50
Protocol: For Table J, “+” refers to an IC50 less than or equal to 100 nM; “++” refers to an IC50 greater than 100 nM and less than or equal to 500 nM; “+++” refers to an IC50 greater than 500 nM and less than or equal to 1000 nM; and “++++” refers to an IC50 greater than 1000 nM and less than or equal to 10000 nM. A375 Cell Proliferation Assay (1)
(§1) A375 cells (catalog (#CRL-1619) are obtained from the American Type Culture Collect (ATTC, Manassas, VA). Briefly, cells were grown in DMEM High Glucose supplemented with 10% characterized fetal bovine serum (Invitrogen, Carlsbad, CA) and 1% Penicillin/Streptomycin/L-Glutamine at 37° C., 5% CO2, and 95% humidity. Cells are expanded until reaching 70-95% confluency at which point they are sub-cultured or harvested for assay use. A serial dilution of test compound is dispensed into a 96-well black clear bottom plate in triplicate. Two thousand five hundred cells are added per well in 200 μL complete growth medium in the 96-well plate. Plates are incubated for 67-72 h at 37° C., 5% CO2, and 95% humidity. At the end of the incubation, 40 μL of a 440 μM solution of resazurin (Sigma, St. Louis, MO) in PBS is added to each well of the plate and plates are incubated for an additional 5-6 h at 37° C., 5% CO2, and 95% humidity. Plates are read on a Synergy2 or equivalent reader (Biotek, Winooski VT) using an excitation of 540 nm and an emission of 600 nm. Data is analyzed using Prism software (GraphPad, San Diego, CA) to calculate IC50 values.

[1] = biological target: A-Raf kinase (SEQ. ID No: 1) (Homo sapiens (Human), UniProt P10398, Y301D/Y302D); assay: Biochemical Assay for A-Raf (1); conditions: read-out: ARAF (1) IC50; Table J, assay version (1)
Protocol: Biochemical Assay for A-Raf (1)
(§2) Activity of A-Raf kinase (SEQ. ID No: 1) was determined spectroscopically using a coupled pyruvate kinase/lactate dehydrogenase assay that continuously monitors the ATP hydrolysis-dependent oxidation of NADH (e.g., Schindler et al., Science, 2000, 289, 1938-1942). Assays were conducted in 384-well plates (100 μL final volume) using 5.55 nM A-Raf (Sigma), 1.5 units pyruvate kinase, 2.1 units lactate dehydrogenase, 1 mM phosphoenol pyruvate, 0.28 mM NADH, 30.1 nM MEK (SignalChem), and 1 mM ATP in assay buffer (100 mM Tris, pH 7.5, 15 mM MgCl2, 0.5 mM DTT, 0.1% octyl-glucoside, 0.002% (w/v) BSA, and 0.002% Triton X-100). Inhibition of A-Raf was measured by adding serial diluted test compound (final assay concentration of 1% DMSO). A decrease in absorption at 340 nm was monitored continuously for 6 h at 30° C. on a multi-mode microplate reader (BioTek). The reaction rate was calculated using the 4 to 5 h time frame. The reaction rate at each concentration of compound was converted to percent inhibition using controls (i.e., reaction with no test compound and reaction with a known inhibitor) and IC50 values were calculated by fitting a four-parameter sigmoidal curve to the data using Prism (GraphPad software).

H2405 cells = assay: H2405 Cell Proliferation Assay (1); conditions: read-out: H2405 (1) IC50
Protocol: H2405 Cell Proliferation Assay (1)
as §1, with “H2405” for “A375”, “#CRL-5994)” for “(#CRL-1619)”, “RPMI 1640” for “DMEM High Glucose”, “5%” for “10%”, “Three” for “Two”, “thousand” for “thousand five hundred”

[2] = biological target: B-Raf kinase (SEQ. ID NO: 2) (Homo sapiens (Human), UniProt P15056); assay: Biochemical Assay for B-Raf (1); conditions: read-out: BRAF (1) IC50; Table J, assay version (1)
Protocol: Biochemical Assay for B-Raf (1)
as §2, with “B-Raf” for “A-Raf”, “NO: 2)” for “No: 1)”, “0.13” for “5.55”, “Ph” for “pH”

Q: Which IC50 (A375 cells) does the source give for CNC(=O)c1cc(-c2cc(-c3cc(NC(=O)c4ccnc(C(F)(F)F)c4)ccc3C)ccn2)ccn1 here?
A: Its IC50 is 100 to 500 nM.

Q: And the IC50 [1]?
A: Its IC50 is 1000 to 10000 nM.

Q: And the IC50 (H2405 cells)?
A: The IC50 was 100 to 500 nM.

Q: What about the IC50 [2] of the same compound?
A: Its IC50 is less than 100 nM.

Q: Which IC50 (A375 cells) does the source give for CNC(=O)c1cc(-c2cc(-c3cc(NC(=O)c4ccnc(C(C)(C)C#N)c4)ccc3C)cc(C)n2)ccn1 here?
A: Its IC50 is less than 100 nM.

Q: What about the IC50 [1] of the same compound?
A: The IC50 was 1000 to 10000 nM.

Q: What about the IC50 (H2405 cells) of the same compound?
A: The IC50 was 100 to 500 nM.

Q: What about the IC50 [2] of the same compound?
A: The IC50 was 100 to 500 nM.

Q: Which IC50 (A375 cells) does the source give for Cc1ccc(NC(=O)c2ccnc(C(C)(C)C#N)c2)cc1-c1cccc(-c2cc(NC3CN(C)C3)ncn2)c1 here?
A: The IC50 was 1000 to 10000 nM.

Q: And the IC50 [1]?
A: Its IC50 is 1000 to 10000 nM.

Q: And the IC50 (H2405 cells)?
A: The IC50 was 1000 to 10000 nM.

Q: What about the IC50 [2] of the same compound?
A: Its IC50 is 100 to 500 nM.

Q: Which results are given for Cc1ncc(NC(=O)c2cn(C(C)C)nn2)cc1-c1cccc(-c2cc(NC(=O)C3CC3)ncn2)c1?
A: IC50 (A375 cells): 100 to 500 nM; IC50 [1]: 1000 to 10000 nM; IC50 (H2405 cells): 100 to 500 nM; IC50 [2]: < 100 nM
